Apoferritin bind: binds horse apoferritin like a general anesthetic. P02791. apoferritin/1-aminoanthracene competitive binding, fluorescence. Potency, µM (titrated, usually from 77.5 µM), for the others: at the top dose activity change, negative = displacement, hits mostly inhibitors. 350,000 tested, 0.074% active. AID 485281; further: potency means the concentration at half of the fitted maximal effect; on the % scale 0 is the no-effect control and ±100 the full control effect; nearly all actives have a fitted effect of over 20% in size
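Horse-spleen apoferritin (10 uM) was mixed with 50% saturated 1-aminoanthracene in PBS, exposed to compounds for 10 min at room temperature, and read for fluorescence (ex 380 nm, em 535 nm). Competitive displacement was fitted with a four-parameter Hill equation.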
miR-21 reporter: miR-21 reporter, rising signal; Potency, µM (doses to about 38.3 µM), without a hit: at the top dose reporter change, positive = more light; HeLa miR-21 FLuc reporter, luciferase, 48 h; 340,000 tested, under 10 active; active = well fitted rising curve with a large enough effect; inconclusive = small, poorly fitted or top-dose-only effect; inactive = no such curve, though single readings can be large or run the other way;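 further: % of control where 0% means no effect; miR-21 action dims this reporter so a rising signal means less miR-21 action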
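HeLa cells endogenously expressing miR-21, stably carrying CMV-driven firefly luciferase with a downstream miR-21 binding site, 2000 cells/well. Titrations up to approximately 40 uM, 48 hours; luciferase luminescence read.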
ClpP mod: qHTS Assay for Activators of ClpP. 340,000 tested, 1.9% active. Potency, µM (highest dose often 57.5 µM), for inactives: at the top dose activity change, negative = active. ATP-dependent Clp protease proteolytic subunit (Bacillus subtilis (strain 168)), P80244. purified B. subtilis ClpP, FRET peptide cleavage, 20 min; active means well fitted falling curve with a large enough effect; inconclusive means small, poorly fitted or top-dose-only effect; inactive means no such curve, though single readings can be large or run the other way; further: potency means the concentration at half of the fitted maximal effect; the source files actives as falling curves though it sought activators and does not explain the sign; nearly all actives have a fitted effect of over 65% in size
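Buffer: 100 mM Tris/HCl pH8, 100 mM KCl, 0.05% low protease BSA, 2.5% glycerol, 0.01% Tween-20. ClpP 10 microg/mL final; 20 min RT; delta FRET normalized to ADEP and DMSO controls.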
TrxR1 substrate: substrates of rat thioredoxin reductase 1. O89049. purified TrxR1 substrate turnover, NADPH consumption readout. Potency, µM (doses to about 114 µM), inactives show at the top dose activity change, negative = substrate turnover. 390,000 tested, 0.01% active. AID 588456; further: potency means the concentration at half of the fitted maximal effect; on the % scale 0 is the no-effect control and ±100 the full control effect; nearly all actives have a fitted effect of over 50% in size
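Rat TrxR1, dispensed at 90 nM, was prereduced with 400 uM NADPH (final) for 5 min at ~22 deg C, then incubated with compound 15 min before 400 uM selenite. A first-read NADPH fluorescence drop versus no-compound background flagged substrates.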
TrxR1 inh: rat TrxR1 inhibition; recombinant rTrxR1, NADPH fluorescence consumption, selenite substrate; O89049; Potency, µM (highest dose often 114 µM), for the others: at the highest dose activity change, negative = inhibition, usual class: inhibitors; 390,000 tested, 1% active; further: potency means the concentration at half of the fitted maximal effect; on the % scale 0 is the no-effect control and ±100 the full control effect; nearly all actives have a fitted effect of over 65% in size
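Rat TrxR1 (90 nM in the dispensed reagent) was pre-reduced with 400 uM NADPH for 5 min at room temperature, then incubated with compound for 15 min. After 400 uM selenite was added, NADPH fluorescence (Ex 340/Em 450 nm) was followed for 8 min.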
Starred values were filed as active, the others as inactive; [ ] = another dose, or the depositor's remark. Hits are enriched below; roughly 2.5% of the tested compounds scored in any of these assays. Unless noted, the call rests on the fitted dose curve; in most records, active means well fitted curve in the direction sought with a large enough effect; inconclusive means small, poorly fitted or top-dose-only effect, or another doubt; inactive means no such curve, though single readings can be large; an effect the other way counts as inactive or inconclusive.

Sequences of proteins named here, by UniProt entry; tags and fusion partners are left off.
ATP-dependent Clp protease proteolytic subunit (Bacillus subtilis (strain 168)), P80244, UniProt P80244, whole entry, looked up: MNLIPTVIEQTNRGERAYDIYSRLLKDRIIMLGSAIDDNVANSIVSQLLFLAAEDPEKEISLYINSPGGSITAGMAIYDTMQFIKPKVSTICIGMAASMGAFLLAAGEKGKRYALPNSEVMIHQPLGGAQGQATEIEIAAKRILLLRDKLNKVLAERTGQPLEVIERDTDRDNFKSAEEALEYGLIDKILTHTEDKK

How did COC(=O)c1c(NC(=O)c2ccc(C)o2)sc2c1CCCCC2 do in these assays?
Apoferritin bind: 0%; miR-21 reporter: -41%; ClpP mod: 32µM*; TrxR1 substrate: 15%[57.1 µM]; TrxR1 inh: 7%[57.1 µM]

Results for Cc1ccc(C(=O)Nc2sc3c(c2C(=O)O)CCCCC3)o1 ?
Apoferritin bind: -6%; miR-21 reporter: inconclusive; ClpP mod: -9%; TrxR1 substrate: 8%[57.1 µM]; TrxR1 inh: -4%[57.1 µM]

Results for CCC1CCc2c(sc(NC(=O)C3c4ccccc4Oc4ccccc43)c2C(=O)OC)C1 (stereo not drawn) ?
Apoferritin bind: -1%; miR-21 reporter: -12%; ClpP mod: 4%; TrxR1 substrate: 4%; TrxR1 inh: 34%

Results for O=C(COc1ccccc1C(=O)Nc1ccccc1)NC1CCCCC1 ?
ClpP mod: 1%; TrxR1 substrate: 5%; TrxR1 inh: 7%

Results for CCOC(=O)N1CCc2c(sc3c2c(=O)n(-c2ccc(CC)cc2)c(=O)n3Cc2ccc(F)cc2Cl)C1 ?
Apoferritin bind: -15%; miR-21 reporter: 0%; ClpP mod: 1%; TrxR1 substrate: 3%; TrxR1 inh: 19%

Results for CCOc1cc(/C=C2\C(=O)N(Cc3ccc(C)cc3)C(C)=C2C(=O)OC)ccc1O ?
Apoferritin bind: inconclusive; miR-21 reporter: -6%; ClpP mod: 7%; TrxR1 substrate: -1%[57.1 µM]; TrxR1 inh: 28µM*

How did C=CCOc1cccc(/C=C2\C(=O)N(Cc3ccc(C)cc3)C(C)=C2C(=O)OC)c1 do in these assays?
Apoferritin bind: inconclusive; miR-21 reporter: -4%; TrxR1 substrate: -6%; TrxR1 inh: -14%

Results for CCOC(=O)C1=C(C)N(c2ccc(OC)cc2)C(=O)/C1=C\c1ccc(O)c(OCC)c1 ?
Apoferritin bind: -22%; miR-21 reporter: 26%; ClpP mod: -2%; TrxR1 substrate: -3%; TrxR1 inh: 40µM*

How did CCC1CCc2sc(C(=O)NNC(=O)c3ccncc3)cc2C1 (stereo not drawn) do in these assays?
ClpP mod: 14µM*; TrxR1 substrate: -4%; TrxR1 inh: 8%

What do the screens show for `O=C(Nc1cccc(NC(=O)c2ccc(Br)o2)n1)c1ccc(Br)o1`?
Apoferritin bind: -8%; miR-21 reporter: -6%; ClpP mod: -8%; TrxR1 substrate: 8%; TrxR1 inh: 32µM*

How did Cc1nc(NC(=O)c2ccc(Br)o2)ccc1Br do in these assays?
Apoferritin bind: inconclusive; miR-21 reporter: -40%; ClpP mod: -3%; TrxR1 substrate: -6%; TrxR1 inh: 18%

How did O=C(c1cccs1)N1CCCc2cc(NS(=O)(=O)c3ccc(Br)cc3)ccc21 do in these assays?
Apoferritin bind: 6%; miR-21 reporter: 13%; ClpP mod: -2%; TrxR1 substrate: 0%[57.1 µM]; TrxR1 inh: 9%[57.1 µM]

How did Cc1cc(C)c2cc(CN(CCO)Cc3nnnn3Cc3ccccc3)c(=O)[nH]c2c1 do in these assays?
Apoferritin bind: 2%; miR-21 reporter: -5%; ClpP mod: -9%; TrxR1 substrate: -13%; TrxR1 inh: -30%

Results for Cc1cc(C)c2cc(CN(CCO)Cc3nnnn3Cc3ccc(F)cc3)c(=O)[nH]c2c1 ?
Apoferritin bind: -11%; miR-21 reporter: -4%; ClpP mod: 20µM*; TrxR1 substrate: -1%; TrxR1 inh: -10%

How did O=c1[nH]c2cc3c(cc2cc1CN(CCCO)Cc1nnnn1Cc1ccc(F)cc1)OCO3 do in these assays?
Apoferritin bind: 3%; miR-21 reporter: -4%; ClpP mod: 32µM*; TrxR1 substrate: 29%[57.1 µM]; TrxR1 inh: 2%[57.1 µM]

Results for Cc1nn(C)c(C)c1S(=O)(=O)N(CC(=O)NCCc1ccc(Cl)cc1)c1ccc(C(C)C)cc1 ?
Apoferritin bind: -14%; miR-21 reporter: -3%; ClpP mod: 2%; TrxR1 substrate: -5%; TrxR1 inh: -1%

Results for Cc1cc(O)c(C=O)c2c1C(=O)Oc1c(CO)c(O)c3c(c1O2)C(O)OC3=O (stereo not drawn) ?
Apoferritin bind: inconclusive; miR-21 reporter: -2%; ClpP mod: 2%; TrxR1 substrate: -7%; TrxR1 inh: 50µM*

How did CC1(C)Cc2c(C#N)c(NCC3CCCO3)nc(-c3ccco3)c2CO1 (stereo not drawn) do in these assays?
Apoferritin bind: -4%; miR-21 reporter: 2%; ClpP mod: 11µM*; TrxR1 substrate: 162%; TrxR1 inh: inconclusive

How did CC1(C)Cc2c(C#N)c(NC3CCCCC3)nc(-c3ccco3)c2CO1 do in these assays?
Apoferritin bind: -17%; miR-21 reporter: 10%

How did CC1(C)Cc2c(C#N)c(NCCc3ccccc3)nc(-c3ccco3)c2CO1 do in these assays?
Apoferritin bind: -14%; miR-21 reporter: -3%; ClpP mod: 28µM*; TrxR1 substrate: 40%[57.1 µM]; TrxR1 inh: inconclusive

What do the screens show for `Cc1nc(NCCO)c(C#N)c2c1COC(C)(C)C2`?
Apoferritin bind: 4%; miR-21 reporter: -3%; ClpP mod: 22µM*; TrxR1 substrate: 26%[57.1 µM]; TrxR1 inh: 35%[57.1 µM]

How did Cc1sc2c(c1C)c(=O)n(-c1ccccc1)c(=O)n2CC(=O)c1ccc(Cl)cc1 do in these assays?
Apoferritin bind: -8%; miR-21 reporter: 4%; ClpP mod: -5%; TrxR1 substrate: -2%; TrxR1 inh: 20%

What do the screens show for `O=C(CC1C(=O)N(c2ccc(F)cc2)C(=O)N1Cc1ccc2c(c1)OCO2)Nc1ccc(Cl)cc1` (stereo not drawn)?
Apoferritin bind: -5%; miR-21 reporter: 24%; ClpP mod: 3%; TrxR1 substrate: -4%; TrxR1 inh: 4%

What do the screens show for `Cc1c(Cl)cccc1NC(=O)Cn1c(=O)n(Cc2nc(-c3ccccc3)no2)c(=O)c2cc3c(cc21)OCO3`?
Apoferritin bind: 30%; miR-21 reporter: 0%; ClpP mod: -21%; TrxR1 substrate: -6%; TrxR1 inh: 2%

What do the screens show for `O=C(Cn1c(=O)n(Cc2nc(-c3ccccc3)no2)c(=O)c2cc3c(cc21)OCO3)Nc1ccc(Cl)cc1`?
Apoferritin bind: 65%; miR-21 reporter: 20%; ClpP mod: 13µM*; TrxR1 substrate: 9%; TrxR1 inh: 34%

What do the screens show for `O=C(Cn1c(=O)n(Cc2nc(-c3ccccc3)no2)c(=O)c2cc3c(cc21)OCO3)Nc1ccccc1`?
Apoferritin bind: -2%; miR-21 reporter: 7%; ClpP mod: 18µM*; TrxR1 substrate: 11%; TrxR1 inh: 36%

What do the screens show for `Cc1ccc(NC(=O)Cn2c(=O)n(Cc3nc(-c4ccccc4)no3)c(=O)c3cc4c(cc32)OCO4)cc1F`?
Apoferritin bind: -3%; miR-21 reporter: 2%; ClpP mod: 5%; TrxR1 substrate: 10%; TrxR1 inh: 14%

How did COc1ccc(OC)c2c(/C=C/c3c(C)[nH]c4ccccc34)ccnc12 do in these assays?
ClpP mod: 0%; TrxR1 substrate: 0%; TrxR1 inh: 4%

Screens (PubChem)
